The assay concerns the target T1, human PD-L2 ectodomain (human, UniProt Q9BQ51 20-220).
T1 sequence: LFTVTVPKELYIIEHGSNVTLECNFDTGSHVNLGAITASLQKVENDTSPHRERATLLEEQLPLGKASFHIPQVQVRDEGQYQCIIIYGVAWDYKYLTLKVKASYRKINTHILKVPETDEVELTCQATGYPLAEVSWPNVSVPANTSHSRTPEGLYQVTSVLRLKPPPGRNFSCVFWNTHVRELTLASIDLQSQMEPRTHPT
Kind of assay: BLI. A general note: In BLI a coated tip is dipped into the sample, and binding shifts an interference pattern.

Residue numbers refer to the chain shown, from its start. Numbers in names are those of the source.

As usually defined, the Kd is the constant that tells how readily two partners part at equilibrium. A higher Kd goes with a looser complex.

B1: human PD-1 (wild type), PD-1-Fc (Fc fusion)
chain: LDSPDRPWNPPTFSPALLVVTEGDNATFTCSFSNTSESFVLNWYRMSPSNQTDKLAAFPEDRSQPGQDCRFRVTQLPNGRDFHMSVVRARRNDSGTYLCGAISLAPKAQIKESLRAELRVTERRAEVPTAHPSPSPRPAGQFQTLV
Molecule B1 registered a Kd of 500 nM.

B2: human PD-1 T76P, PD-1-Fc (Fc fusion)
chain: B1 chain with T52P
Molecule B2 registered a Kd of 12 nM.

B3: human PD-1 A132V, PD-1-Fc (Fc fusion)
chain: B1 chain with A108V
B3: the Kd was determined as 69 nM.

B4: human PD-1 N74G, PD-1-Fc (Fc fusion)
chain: B1 chain with N50G
For the molecule B4, binding was put at a Kd of 170 nM.

The record behind these values is publication PMC6900541 (Proceedings of the National Academy of Sciences of the …, 2019).
